Measured values taken from ChEMBL document CHEMBL1138716, “Carbonic anhydrase inhibitors. Inhibition of the prokariotic beta and gamma-class enzymes from Archaea with sulfonamides” (Bioorg Med Chem Lett, 2004).
pKi: −log10 of the molar value.

How the values were obtained:
[1] = molecular target: T1, Carbonic anhydrase (Methanobacterium thermoautotrophicum, UniProt Q50565)
T1 sequence (Q50565 whole entry): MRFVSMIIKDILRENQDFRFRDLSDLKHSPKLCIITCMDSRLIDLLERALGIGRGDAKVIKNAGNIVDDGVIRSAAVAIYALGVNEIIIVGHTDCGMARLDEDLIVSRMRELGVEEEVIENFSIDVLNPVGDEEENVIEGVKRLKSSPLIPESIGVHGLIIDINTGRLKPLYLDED

[2] = molecular target: T2, Carbonic anhydrase (Methanosarcina thermophila, UniProt P40881)
T2 sequence (P40881 whole entry): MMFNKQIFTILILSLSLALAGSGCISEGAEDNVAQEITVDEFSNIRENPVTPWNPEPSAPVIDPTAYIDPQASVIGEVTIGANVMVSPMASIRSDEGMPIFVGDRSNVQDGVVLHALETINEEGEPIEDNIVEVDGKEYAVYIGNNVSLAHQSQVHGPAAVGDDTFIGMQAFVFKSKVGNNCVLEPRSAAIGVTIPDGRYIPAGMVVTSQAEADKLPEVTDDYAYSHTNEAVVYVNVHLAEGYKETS

Q: What does the source list for `Nc1cc(Cl)c(S(N)(=O)=O)cc1S(N)(=O)=O`?
A: pKi [1]: 4.21; pKi [2]: 6.21
